# Laboratory results reported in ChEMBL document CHEMBL1129857, “Synthesis, molecular modeling, and biology of the 1-benzyl derivative of APDC-an apparent mGluR6 selective ligand” (Bioorg Med Chem Lett, 1997).
# Chains of the proteins cited; added tags and fusions are not shown. Lines headed by an entry give the natural chain unless they say otherwise; changes in a name come on top.
# UniProt P31421: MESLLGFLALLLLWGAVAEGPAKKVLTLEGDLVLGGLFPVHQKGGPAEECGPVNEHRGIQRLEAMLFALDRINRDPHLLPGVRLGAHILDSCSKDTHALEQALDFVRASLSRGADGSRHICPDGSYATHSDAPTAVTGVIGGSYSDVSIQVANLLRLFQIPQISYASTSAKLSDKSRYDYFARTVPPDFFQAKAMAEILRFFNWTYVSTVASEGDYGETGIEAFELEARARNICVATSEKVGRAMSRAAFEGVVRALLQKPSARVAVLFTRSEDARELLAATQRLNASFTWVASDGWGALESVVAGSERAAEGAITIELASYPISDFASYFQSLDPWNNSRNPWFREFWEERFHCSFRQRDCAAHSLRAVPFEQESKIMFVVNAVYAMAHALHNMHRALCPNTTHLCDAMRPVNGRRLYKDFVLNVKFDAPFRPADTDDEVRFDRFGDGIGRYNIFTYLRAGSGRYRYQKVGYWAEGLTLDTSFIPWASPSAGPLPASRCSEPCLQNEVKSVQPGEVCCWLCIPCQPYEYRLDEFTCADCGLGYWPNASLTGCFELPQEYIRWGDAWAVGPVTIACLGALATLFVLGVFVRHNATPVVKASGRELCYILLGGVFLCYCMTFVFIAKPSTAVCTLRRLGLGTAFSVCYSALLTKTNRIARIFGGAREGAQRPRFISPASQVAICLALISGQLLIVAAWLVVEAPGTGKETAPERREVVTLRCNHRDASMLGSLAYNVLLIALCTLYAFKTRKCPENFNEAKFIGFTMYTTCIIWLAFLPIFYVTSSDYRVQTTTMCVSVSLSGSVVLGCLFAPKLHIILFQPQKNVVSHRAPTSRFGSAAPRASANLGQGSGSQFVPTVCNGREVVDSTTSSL
# Target: Metabotropic glutamate receptor 2 (Rattus norvegicus, UniProt P31421)
# Assay: Tested for the agonistic activity against Metabotropic glutamate receptor 2
# Type: functional
compound,measurement,value
N[C@@]1(C(=O)O)CC[C@H]2[C@H](C(=O)O)[C@H]21 [EGLUMETAD],EC50,35 nM
